How the values were obtained:
[1] = target: recombinant human caseinolytic peptidase hClpP (Homo sapiens, UniProt Q16740); experiment: hClpP peptide hydrolysis assay (coumarin release from Ac-WLA-AMC); details: purified hClpP
hClpP = hClpP (Homo sapiens, UniProt Q16740); experiment: hClpP binding to compound immobilized on Sepharose beads and competition, HELA cell lysates, Western blot
ClpX and TUFM = ClpX and TUFM protein levels by Western blot in SUM159 cells; details: Western blots, concentration response and time course

The chains behind the UniProt entries cited, without tags or fusion partners. Residues count along the entry.
UniProt Q16740, 57-277 limits assumed: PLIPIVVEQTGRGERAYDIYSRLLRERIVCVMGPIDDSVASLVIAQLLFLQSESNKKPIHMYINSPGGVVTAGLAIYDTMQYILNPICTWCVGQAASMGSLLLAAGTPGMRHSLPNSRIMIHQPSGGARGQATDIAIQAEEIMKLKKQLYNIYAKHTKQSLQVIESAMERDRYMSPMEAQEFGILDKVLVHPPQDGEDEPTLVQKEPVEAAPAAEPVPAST

hClpP binding to compound coupled to Sepharose beads (hClpP)	Compound	Dose-dependency of hClpP activation [1]	ClpX and TUFM protein (ClpX and TUFM)
hClpP directly binds	N#Cc1cccc(CN2CCc3c(c(=O)n(Cc4ccc(C(F)(F)F)cc4)c(=O)n3CCCN)C2)c1	dose-dependent increases in hClpP activity	–
hClpP directly binds	N#Cc1cccc(CN2CCc3c(c(=O)n(Cc4ccc(C(F)(F)F)cc4)c(=O)n3CCCCN)C2)c1	–	–
hClpP directly binds	N#Cc1cccc(CN2CCc3c(c(=O)n(Cc4ccc(Cl)cc4)c(=O)n3CCCCN)C2)c1	–	–
–	N#Cc1cccc(CC2CCC3=C(C2)C(=O)N(Cc2ccc(Cl)cc2)C2=NCCN23)c1 (centres unmarked)	Dose-dependent increases in hClpP activity	–
–	N#Cc1cccc(CC2CCC3=C(C2)C(=O)N(Cc2ccc(C(F)(F)F)cc2)C2=NCCN23)c1 (centres unmarked)	Dose-dependent increases in hClpP activity	–
–	N#Cc1cccc(CN2CCC3=C(C2)C(=O)N(Cc2ccc(C(F)(F)F)cc2)C2=NCCCN23)c1	Dose-dependent increases in hClpP activity	–
–	Cc1ccccc1CN1C(=O)C2=C(CCN(Cc3ccccc3)C2)N2CCN=C12	–	reduction of the protein ClpX and TUFM

From patent EP3930714B1, “USE OF CASEINOLYTIC PROTEASE P FUNCTION AS A BIOMARKER OF DRUG RESPONSE TO IMIPRIDONE-LIKE AGENTS AND COMPOUNDS FOR SUCH USE” (dated 2026)
